Assay [1] in a line: Antioxidant activity assessed as DPPH radical scavenging activity at 100 uM incubated for 30 mins by DPPH assay relative to control. Format: functional.
Assay [2] can be described thus: Antioxidant activity assessed as DPPH radical scavenging activity at 50 uM incubated for 30 mins by DPPH assay relative to control. Format: functional.

With `Cc1c(C)c2c(c(C)c1O)CCC(C)(C(=O)O)O2` (configuration not stated), the Activity is 98% in assay [1] and 94.4% in assay [2].

The record behind these values is ChEMBL document CHEMBL5143721, “Novel Hydroxychalcone-Based Dual Inhibitors of Aldose Reductase and α-Glucosidase as Potential Therapeutic Agents against Diabetes Mellitus and Its Complications” (J Med Chem, 2022).
